Common to all, as to settings: equilibrium dissociation constant
Assay [1] deals with T1, RIP3 (Homo sapiens, UniProt Q9Y572).
T1 construct: purchased DiscoverX (KINOMEscan service); host or cells: E. coli BL21-derived host (T7 phage) or HEK-293
Nature of the assay: KINOMEscan binding affinity assay, RIP3.

Sequences of proteins named here, by UniProt entry; tags and fusion partners are left off. A change or cut given only in a name is not applied to a line headed by its entry.
UniProt Q9Y572: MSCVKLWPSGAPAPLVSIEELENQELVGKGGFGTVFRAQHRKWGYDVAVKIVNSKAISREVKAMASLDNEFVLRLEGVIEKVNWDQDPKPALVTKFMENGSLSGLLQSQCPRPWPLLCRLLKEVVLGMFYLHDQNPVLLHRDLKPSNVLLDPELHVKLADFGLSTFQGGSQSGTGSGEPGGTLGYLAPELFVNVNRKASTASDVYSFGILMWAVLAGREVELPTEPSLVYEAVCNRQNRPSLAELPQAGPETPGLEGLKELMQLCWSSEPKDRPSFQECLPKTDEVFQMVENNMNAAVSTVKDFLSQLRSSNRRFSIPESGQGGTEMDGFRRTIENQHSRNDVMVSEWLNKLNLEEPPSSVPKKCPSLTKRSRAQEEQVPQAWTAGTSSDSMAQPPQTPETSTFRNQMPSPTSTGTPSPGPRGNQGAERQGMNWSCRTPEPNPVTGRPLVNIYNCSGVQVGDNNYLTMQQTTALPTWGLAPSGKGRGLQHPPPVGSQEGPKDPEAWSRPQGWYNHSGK

In assay [2] the target is T2, RIP1 (Homo sapiens, UniProt Q13546).
T2 construct: purchased DiscoverX (KINOMEscan service); host or cells: E. coli BL21-derived host (T7 phage) or HEK-293
T2 sequence (Q13546 1-671): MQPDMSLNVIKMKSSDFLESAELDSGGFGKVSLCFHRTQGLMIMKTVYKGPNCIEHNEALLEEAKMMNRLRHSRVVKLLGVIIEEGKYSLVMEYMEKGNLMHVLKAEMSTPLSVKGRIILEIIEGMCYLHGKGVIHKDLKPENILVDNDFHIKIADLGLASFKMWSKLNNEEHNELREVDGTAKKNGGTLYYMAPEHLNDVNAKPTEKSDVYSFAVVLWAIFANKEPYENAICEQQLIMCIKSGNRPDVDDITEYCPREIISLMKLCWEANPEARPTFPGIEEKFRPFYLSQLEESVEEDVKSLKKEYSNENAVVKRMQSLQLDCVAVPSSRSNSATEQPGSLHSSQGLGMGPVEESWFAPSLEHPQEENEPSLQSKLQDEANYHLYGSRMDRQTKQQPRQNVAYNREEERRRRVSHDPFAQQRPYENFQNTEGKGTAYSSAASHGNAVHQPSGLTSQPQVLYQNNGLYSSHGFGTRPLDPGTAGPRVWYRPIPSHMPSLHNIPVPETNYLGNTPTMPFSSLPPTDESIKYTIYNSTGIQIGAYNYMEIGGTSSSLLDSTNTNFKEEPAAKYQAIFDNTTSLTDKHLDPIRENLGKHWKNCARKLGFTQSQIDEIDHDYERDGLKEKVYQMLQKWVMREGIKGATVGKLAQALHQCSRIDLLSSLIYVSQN
The assay can be described thus: KINOMEscan binding affinity assay, RIP1.

The target in assay [3] is T3, MLKL (full length) (Homo sapiens, UniProt Q8NB16).
T3 construct: purchased DiscoverX (KINOMEscan service); host or cells: E. coli BL21-derived host (T7 phage) or HEK-293
T3 sequence (Q8NB16 1-471): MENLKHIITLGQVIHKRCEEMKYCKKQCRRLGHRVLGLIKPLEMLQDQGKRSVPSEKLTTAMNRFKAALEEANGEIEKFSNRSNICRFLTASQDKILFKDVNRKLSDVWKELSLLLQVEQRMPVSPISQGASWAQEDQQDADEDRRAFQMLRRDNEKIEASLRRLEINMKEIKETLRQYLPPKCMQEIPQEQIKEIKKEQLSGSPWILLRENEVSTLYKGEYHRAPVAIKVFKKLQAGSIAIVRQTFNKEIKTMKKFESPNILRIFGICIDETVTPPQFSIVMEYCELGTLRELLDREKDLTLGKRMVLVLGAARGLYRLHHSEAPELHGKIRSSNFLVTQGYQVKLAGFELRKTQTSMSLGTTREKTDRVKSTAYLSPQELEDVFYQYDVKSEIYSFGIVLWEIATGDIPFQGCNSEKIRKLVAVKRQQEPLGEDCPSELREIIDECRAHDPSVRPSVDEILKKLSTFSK
The assay can be described thus: KINOMEscan binding affinity assay, MLKL.

A value given as a limit tells only on which side of the number the result lay.

Among the data in patent US20230227428A1 (Anaxis Pharma Pty Ltd, priority 2020, published 2023) are Kd values, retold here.

In general, Kd refers to the concentration at which binding is half-saturated.

Take `COc1cccc(Nc2[nH]nc(-c3ccc(NC(=O)Cc4ccccc4)cc3)c2C(N)=O)c1` [Compound 46, 5-((3-methoxyphenyl)amino)-3-(4-(2-phenylacetamido)phenyl)-1H-pyrazole-4-carboxamide]: the Kd in assay [1] was above 1000 nM; in assay [2], above 1000 nM; in assay [3] it was 100 to 1000 nM.
In the case of `CC(C)C(C(=O)Nc1ccc(-c2n[nH]c(Nc3ccccn3)c2C(N)=O)cc1)c1ccccc1` (stereo not drawn) [Compound 2, 3-(4-(3-methyl-2-phenyl-butanamido)phenyl)-5-(pyridin-2-ylamino)-1H-pyrazole-4-carboxamide], the Kd in assay [1], in assay [2] and in assay [3] was above 1000 nM throughout.
With `COc1cc(Nc2[nH]nc(-c3ccc(NC(=O)c4cnn(-c5ccccc5)c4)cc3)c2C(N)=O)ccn1` [Compound 38, N-(4-(4-carbamoyl-5-((2-methoxypyridin-4-yl)amino)-1H-pyrazol-3-yl)phenyl)-1-phenyl-1H-pyrazole-4-carboxamide], the values for the Kd in assay [1], in assay [2] and in assay [3] were above 1000 nM, above 1000 nM and below 100 nM, respectively.
Turning to `NC(=O)c1c(-c2ccc(NC(=O)Cc3ccc(C(F)(F)F)cc3)cc2)n[nH]c1Nc1ccccn1` [Compound 1, 3-(4-(2-(4-(trifluoromethyl)phenyl)acetamido)phenyl)-5-(pyridin-2-ylamino)-1H-pyrazole-4-carboxamide], the Kd in assay [1], in assay [2] and in assay [3] was above 1000 nM in each case.
As to `COc1cc(Nc2[nH]nc(-c3ccc(NC(=O)N4CCC(c5ccccc5)CC4)cc3)c2C(N)=O)ccn1` [Compound 49, N-(4-(4-carbamoyl-5-((2-methoxypyridin-4-yl)amino)-1H-pyrazol-3-yl)phenyl)-4-phenylpiperidine-1-carboxamide], the results for the Kd in assay [1], in assay [2] and in assay [3] were above 1000 nM, above 1000 nM and 100 to 1000 nM, respectively.
On to `COCCOc1cccc(Nc2[nH]nc(-c3ccc(NC(=O)Cc4ccccc4)cc3)c2C(N)=O)n1` [Compound 43, 5-((6-(2-methoxyethoxy)pyridin-2-yl)amino)-3-(4-(2-phenyl-acetamido)phenyl)-1H-pyrazole-4-carboxamide], for which the results for the Kd in assay [1], in assay [2] and in assay [3] were 100 to 1000 nM, above 1000 nM and 100 to 1000 nM, respectively.
`CN1CCN(c2c(Nc3ccc(-c4n[nH]c(Nc5ccccn5)c4C(N)=O)cc3)c(=O)c2=O)CC1` [Compound 124, 3-(4-((2-(4-methylpiperazin-1-yl)-3,4-dioxocyclobut-1-en-1-yl)amino)phenyl)-5-(pyridin-2-ylamino)-1H-pyrazole-4-carboxamide]: the Kd in assay [1], in assay [2] and in assay [3] was above 1000 nM each time.
Consider `NC(=O)c1c(-c2ccc(NC(=O)c3ccn(-c4ccccc4)n3)cc2)n[nH]c1Nc1cccc(C(F)(F)F)n1` [Compound 37, N-(4-(4-carbamoyl-5-((6-(trifluoromethyl)pyridin-2-yl)amino)-1H-pyrazol-3-yl)phenyl)-1-phenyl-1H-pyrazole-3-carboxamide], for which the Kd is above 1000 nM in assay [1], above 1000 nM in assay [2] and 100 to 1000 nM in assay [3].
For the compound `NC(=O)c1c(-c2ccc(NC(=O)Cc3cccs3)cc2)n[nH]c1Nc1ccccn1` [Compound 14, 5-(pyridin-2-ylamino)-3-(4-(2-(thiophen-2-yl)acetamido)phenyl)-1H-pyrazole-4-carboxamide], the Kd in assay [1], in assay [2] and in assay [3] was above 1000 nM throughout.
Consider `CN(c1ccccc1)c1c(Nc2ccc(-c3n[nH]c(Nc4ccccn4)c3C(N)=O)cc2)c(=O)c1=O` [Compound 126, 3-(4-((2-(methyl(phenyl)amino)-3,4-dioxocyclobut-1-en-1-yl)amino)phenyl)-5-(pyridin-2-ylamino)-1H-pyrazole-4-carboxamide], for which the figures for the Kd in assay [1], in assay [2] and in assay [3] were above 1000 nM, above 1000 nM and below 100 nM, respectively.
As to `Cc1nn(-c2ccccc2)c(C)c1C(=O)Nc1ccc(-c2n[nH]c(Nc3cccc(C(F)(F)F)n3)c2C(N)=O)cc1` [Compound 34, N-(4-(4-carbamoyl-5-((6-(trifluoromethyl)pyridin-2-yl)amino)-1H-pyrazol-3-yl)phenyl)-3,5-dimethyl-1-phenyl-1H-pyrazole-4-carboxamide], the values for the Kd in assay [1], in assay [2] and in assay [3] were above 1000 nM, above 1000 nM and 100 to 1000 nM, respectively.
Turning to `COCCOc1cc(Nc2[nH]nc(-c3ccc(NC(=O)C(C)N)cc3)c2C(N)=O)ccn1` (stereo not drawn) [Compound 18, 3-(4-(2-aminopropan-amido)phenyl)-5-((2-(2-methoxyethoxy)pyridin-4-yl)amino)-1H-pyrazole-4-carboxamide], the Kd was above 1000 nM in assay [1], above 1000 nM in assay [2] and below 100 nM in assay [3].
In the case of `COc1cc(Nc2[nH]nc(-c3ccc(NC(=O)N4CCC(c5c(C)noc5C)C4)cc3)c2C(N)=O)ccn1` (stereo not drawn) [Compound 73, 3-(4-(3-(3,5-dimethylisoxazol-4-yl)pyrrolidine-1-carboxamido)phenyl)-5-((2-methoxypyridin-4-yl)amino)-1H-pyrazole-4-carboxamide], the Kd in assay [1] is above 1000 nM; in assay [2], above 1000 nM; in assay [3], 100 to 1000 nM.
In the case of `COc1cc(Nc2[nH]nc(-c3ccc(NC(=O)N4CC(Cc5ccccc5)C4)cc3)c2C(N)=O)ccn1` [Compound 53, 3-(4-(3-benzylazetidine-1-carboxamido)phenyl)-5-((2-methoxypyridin-4-yl)amino)-1H-pyrazole-4-carboxamide], the results for the Kd in assay [1], in assay [2] and in assay [3] were above 1000 nM, above 1000 nM and below 100 nM, respectively.
`N#Cc1ccc(Nc2[nH]nc(-c3ccc(NC(=O)Nc4ccc(OC(F)(F)F)cc4)cc3)c2C(N)=O)cc1` [Compound 113, 5-((4-cyanophenyl)amino)-3-(4-(3-(4-(trifluoromethoxy)phenyl)ureido)phenyl)-1H-pyrazole-4-carboxamide]: the Kd in assay [1], in assay [2] and in assay [3] was above 1000 nM throughout.
As to `CN(C)c1c(Nc2ccc(-c3n[nH]c(Nc4ccccn4)c3C(N)=O)cc2)c(=O)c1=O` [Compound 117, 3-(4-((2-(dimethylamino)-3,4-dioxocyclobut-1-en-1-yl)amino)phenyl)-5-(pyridin-2-ylamino)-1H-pyrazole-4-carboxamide], the Kd in assay [1] is above 1000 nM; in assay [2], above 1000 nM; in assay [3], 100 to 1000 nM.
Regarding `COc1cc(Nc2[nH]nc(-c3ccc(NC(=O)N4CCc5cc(C(F)(F)F)ccc5C4)cc3)c2C(N)=O)ccn1` [Compound 52, N-(4-(4-carbamoyl-5-((2-methoxypyridin-4-yl)amino)-1H-pyrazol-3-yl)phenyl)-6-(trifluoromethyl)-3,4-dihydroisoquinoline-2(1H)-carboxamide], the Kd in assay [1] is above 1000 nM; in assay [2] it was above 1000 nM; in assay [3] it was below 100 nM.
For `NC(=O)c1c(-c2ccc(Nc3c(Nc4ccc(F)cc4)c(=O)c3=O)cc2)n[nH]c1Nc1ccccn1` [Compound 122, 3-(4-((2-((4-fluorophenyl)amino)-3,4-dioxocyclobut-1-en-1-yl)amino)phenyl)-5-(pyridin-2-ylamino)-1H-pyrazole-4-carboxamide], the Kd was above 1000 nM in assay [1], above 1000 nM in assay [2] and 100 to 1000 nM in assay [3].
Turning to `NC(=O)c1c(-c2ccc(NC(=O)N3CCC[C@@H](c4ccc(F)cc4)C3)cc2)n[nH]c1Nc1cccc(C(F)(F)F)n1` [Compound 79, (S)-N-(4-(4-carbamoyl-5-((6-(trifluoromethyl)pyridin-2-yl)amino)-1H-pyrazol-3-yl)phenyl)-3-(4-fluorophenyl)piperidine-1-carboxamide], the Kd in assay [2] and in assay [3] was above 1000 nM each time.
Consider `COc1cc(Nc2[nH]nc(-c3ccc(NC(=O)N4CCC[C@H]4c4ccccc4)cc3)c2C(N)=O)ccn1` [Compound 103, (S)-5-((2-methoxypyridin-4-yl)amino)-3-(4-(2-phenylpyrrolidine-1-carboxamido)phenyl)-1H-pyrazole-4-carboxamide], for which the Kd in assay [2] is 100 to 1000 nM; in assay [3], below 100 nM.
The matching figures for `COc1cccc(C2CCCN(C(=O)Nc3ccc(-c4n[nH]c(Nc5cnccn5)c4C(N)=O)cc3)C2)c1` (stereo not drawn) [Compound 97, N-(4-(4-carbamoyl-5-(pyrazin-2-ylamino)-1H-pyrazol-3-yl)phenyl)-3-(3-methoxyphenyl)piperidine-1-carboxamide]: below 100 nM and below 100 nM.
